{
  "source": "patent US20050250794A1",
  "about": "“Methods of treating a disorder” (priority 2003, published 2005)",
  "target": "T1, human SirT1 (Homo sapiens, UniProt Q96EB6)",
  "T1 construct": "purchased Biomol SE-239",
  "T1 sequence (Q96EB6 1-747)": "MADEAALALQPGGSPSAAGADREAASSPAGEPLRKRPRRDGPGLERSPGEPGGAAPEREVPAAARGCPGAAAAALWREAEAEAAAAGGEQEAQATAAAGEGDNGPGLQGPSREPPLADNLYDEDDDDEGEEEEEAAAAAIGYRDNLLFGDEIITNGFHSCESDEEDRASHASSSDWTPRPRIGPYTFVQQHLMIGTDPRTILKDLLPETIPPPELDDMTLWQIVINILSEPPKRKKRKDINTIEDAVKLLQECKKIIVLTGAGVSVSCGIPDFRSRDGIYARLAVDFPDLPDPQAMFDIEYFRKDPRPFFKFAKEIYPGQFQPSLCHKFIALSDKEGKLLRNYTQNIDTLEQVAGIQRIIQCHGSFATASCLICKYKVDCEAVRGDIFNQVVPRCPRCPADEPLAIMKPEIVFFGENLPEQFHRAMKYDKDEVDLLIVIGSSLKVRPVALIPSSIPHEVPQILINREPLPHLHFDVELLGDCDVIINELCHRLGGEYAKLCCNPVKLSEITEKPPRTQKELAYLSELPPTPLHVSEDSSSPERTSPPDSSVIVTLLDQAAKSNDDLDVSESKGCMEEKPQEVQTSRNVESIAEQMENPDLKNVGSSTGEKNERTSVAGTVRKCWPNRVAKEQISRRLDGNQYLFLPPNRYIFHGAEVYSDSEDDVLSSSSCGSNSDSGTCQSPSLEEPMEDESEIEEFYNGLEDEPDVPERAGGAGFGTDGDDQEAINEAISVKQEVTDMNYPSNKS",
  "assay": "SirT1 Fluor de Lys enzymatic deacetylase assay",
  "type": "biochemical",
  "source_text": "An exemplary assay method includes a 1536 well format of the SirT1 enzymatic assay that is based on the commercial “Fluor-de-Lys” assay principle by Biomol, which is fluorogenic (www.biomol.com/store/Product_Data_PDFs/ak500.pdf). In this assay, deacetylation of the e-amino function of a lysyl residue is coupled to a fluorogenic “development step that is dependent on the unblocked e-amino functionality and generates fluorescent aminomethylcoumarin. Fluorescence can be read on a commercial macroscopic reader.\nStep Description • 1 Prepare amount of 2× Substrates necessary for the number of wells to be assayed.",
  "data": [
    {"smiles": "NC(=O)c1cc(-c2ccccc2)sc1N", "note": "[Compound 37, 2-Amino-5-phenyl-thiophene-3-carboxylic acid amide]", "values": [
      {"measurement": "IC50", "value": "> 10", "unit": "µM"}
    ]}
  ]
}
